Assay results: patent publication US8828983B2, “Macrocycles as factor XIa inhibitors” (Bristol-Myers Squibb Company, priority 2010, dated 2014)
pKi: −log10 of the molar value.

Protein sequences, listed by entry. Tags and fused reporters are not part of them. Residues count along the entry.
UniProt P03951, 388-625 limits assumed: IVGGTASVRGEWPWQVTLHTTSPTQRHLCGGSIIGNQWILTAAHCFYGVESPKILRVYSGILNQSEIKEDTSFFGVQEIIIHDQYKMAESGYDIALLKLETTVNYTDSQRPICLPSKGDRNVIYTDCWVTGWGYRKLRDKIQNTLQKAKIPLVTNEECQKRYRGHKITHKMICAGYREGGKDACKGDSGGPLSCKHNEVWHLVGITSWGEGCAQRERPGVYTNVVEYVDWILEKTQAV
UniProt P03951, 19-387 partner limits assumed: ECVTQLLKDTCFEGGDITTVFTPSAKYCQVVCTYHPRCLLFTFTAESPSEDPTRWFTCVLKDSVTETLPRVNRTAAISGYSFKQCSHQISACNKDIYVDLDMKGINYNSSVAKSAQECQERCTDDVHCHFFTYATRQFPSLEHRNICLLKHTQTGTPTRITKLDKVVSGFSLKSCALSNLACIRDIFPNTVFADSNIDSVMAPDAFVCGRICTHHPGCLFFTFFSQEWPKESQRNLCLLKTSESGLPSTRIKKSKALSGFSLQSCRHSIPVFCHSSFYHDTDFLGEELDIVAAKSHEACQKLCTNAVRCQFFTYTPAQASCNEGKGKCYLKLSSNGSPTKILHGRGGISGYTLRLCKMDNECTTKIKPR

Molecular target: purified human Factor XIa (Homo sapiens (Human), UniProt P03951)
Assay: Factor XIa assay (chromogenic substrate S-2366 hydrolysis, Ki)
Settings: read-out: Factor XIa Ki, substrate S-2366, pH 7.4
Protocol: The effectiveness of compounds of the present invention as inhibitors of the coagulation Factors XIa, VIIa, IXa, Xa, XIIa, plasma kallikrein or thrombin, can be determined using a relevant purified serine protease, respectively, and an appropriate synthetic substrate. The rate of hydrolysis of the chromogenic or fluorogenic substrate by the relevant serine protease was measured both in the absence and presence of compounds of the present invention. […] A decrease in the rate of absorbance or fluorescence change in the presence of inhibitor is indicative of enzyme inhibition. Such methods are known to one skilled in the art. The results of this assay are expressed as the inhibitory constant, Ki.
Factor XIa determinations were made in 50 mM HEPES buffer at pH 7.4 containing 145 mM NaCl, 5 mM KCl, and 0.1% PEG 8000 (polyethylene glycol; JT Baker or Fisher Scientific). […]
The Michaelis constant, Km, for substrate hydrolysis by each protease, was determined at 25° C. using the method of Lineweaver and Burk. Values of Ki were determined by allowing the protease to react with the substrate in the presence of the inhibitor. Reactions were allowed to go for periods of 20-180 minutes (depending on the protease) and the velocities (rate of absorbance or fluorescence change versus time) were measured. […]

| Compound | pKi |
| --- | --- |
| CNc1ccc2c(c1)NCCCc1nc(ccc1F)C[C@@H](NC(=O)/C=C/c1cc(Cl)ccc1-n1cnnn1)c1nc-2c(Cl)[nH]1 | 5.13 |
| CNc1ccc2c(c1)NCCCc1nc(ccc1F)C[C@H](NC(=O)/C=C/c1cc(Cl)ccc1-n1cnnn1)c1nc-2c(Cl)[nH]1 | 6.97 |
